Test results reported in PubChem BioAssay AID434994 (NMMLSC, 2010).
This is a selection; strong and weak results do not stand in their true shares. Some of these compounds have results that are not shown, active ones among them. Calls of active or inactive are those of the source.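 The calls were made as follows: active = superoxide signal below 65% of the plate average of sample wells; inactive = the rest.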

Assay: retest of yeast aging ROS inhibitors – cherry picked compounds, confirmation (AID 434994);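 also: cells aged with compound for 7 days at 30 degrees C before staining; 100% equals mean DHE fluorescence of all compound wells on the plate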
Conditions: S. cerevisiae aging, superoxide DHE fluorescence; at 10 µM; active compounds read low

Q: Which superoxide response (% of plate) does the source give for `COc1cc(C(=O)NCC2(N(C)C)CCCCC2)c([N+](=O)[O-])cc1OC` here?
A: The superoxide response (% of plate) was inactive: 95.7%.
